The chains behind the UniProt entries cited, without tags or fusion partners.
UniProt P14842, whole entry: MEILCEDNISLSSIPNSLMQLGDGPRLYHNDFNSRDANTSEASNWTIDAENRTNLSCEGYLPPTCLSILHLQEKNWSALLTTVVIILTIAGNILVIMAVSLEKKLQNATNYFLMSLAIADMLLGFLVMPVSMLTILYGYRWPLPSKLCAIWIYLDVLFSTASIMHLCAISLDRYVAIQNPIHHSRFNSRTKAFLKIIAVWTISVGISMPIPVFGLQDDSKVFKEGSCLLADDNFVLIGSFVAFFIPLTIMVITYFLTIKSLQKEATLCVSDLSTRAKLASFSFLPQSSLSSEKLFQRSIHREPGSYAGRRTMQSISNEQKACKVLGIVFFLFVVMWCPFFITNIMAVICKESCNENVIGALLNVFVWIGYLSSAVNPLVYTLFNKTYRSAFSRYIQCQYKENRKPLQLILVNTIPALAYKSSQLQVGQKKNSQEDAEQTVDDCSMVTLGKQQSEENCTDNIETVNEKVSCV
UniProt P61169, whole entry: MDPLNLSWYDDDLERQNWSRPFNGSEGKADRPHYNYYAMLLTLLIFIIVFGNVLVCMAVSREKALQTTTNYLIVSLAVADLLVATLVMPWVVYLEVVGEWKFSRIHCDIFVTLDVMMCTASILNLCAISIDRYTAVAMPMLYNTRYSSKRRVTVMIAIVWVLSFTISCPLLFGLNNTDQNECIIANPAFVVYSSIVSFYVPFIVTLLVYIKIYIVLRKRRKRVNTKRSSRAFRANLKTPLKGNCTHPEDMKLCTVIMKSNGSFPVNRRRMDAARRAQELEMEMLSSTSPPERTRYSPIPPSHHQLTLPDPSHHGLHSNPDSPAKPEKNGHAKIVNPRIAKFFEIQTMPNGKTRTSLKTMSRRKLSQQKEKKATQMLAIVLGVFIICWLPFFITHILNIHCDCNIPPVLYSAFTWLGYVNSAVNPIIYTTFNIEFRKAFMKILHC

According to patent publication US5703087A, “Phenyl indole compounds” (H. Lundbeck A/S, priority 1993, dated 1997):

Legend:
5-HT2 receptors = target: T1, 5-HT2 receptors (Rattus norvegicus, UniProt P14842); experiment: Inhibition of 3H-Ketanserin binding to 5-HT2 receptors in membranes from rat cortex in vitro; details: 0,5 nM 3H-ketanserin
T1 construct: 5-HT2 receptors in membranes from rat; from tissue; host or cells: rat cortex membranes
Protocol: Inhibition of ^3 H-Ketanserin Binding To 5-HT2 Receptors in […] Cortex in vitro
By this method the inhibition by drugs of the binding of ^3 H-Ketanserin (0,5 nM) to 5-HT2 receptors in membranes from rat is determined in vitro. The method is described in Hyttel, Pharmacology & Toxicology 61, 126-129, 1987.

dopamine D2 receptors = target: T2, dopamine D2 receptors (Rattus norvegicus, UniProt P61169); experiment: Inhibition of 3H-Spiperone binding to dopamine D2 receptors in rat corpus striatum in vitro; details: 0.5 nM 3H-spiperone, rat corpus striatum membranes, read-out: Dopamine D2 binding [^3 H]-spiroperidol
T2 construct: dopamine D2 receptors in membranes from rat corpus striatum; from tissue; host or cells: rat corpus striatum membranes
Protocol: Inhibition of ^3 H-Spiperone Binding to Dopamine D2 Receptors in Rat Corpus Striatum in vitro
By this method the inhibition by drugs of the binding of ^3 H-spiperone (0.5 nM) to dopamine D2 receptors in membranes from rat corpus striatum is determined in vitro. The method and results for standard compounds are described in Hyttel & Larsen, J. Neurochem, 44, 1615-1622, 1985).

O=C1NCCN1CCN1CCC(c2cn(-c3ccc(F)cc3)c3ccc(Cl)cc23)CC1 [sertindole, 1-[2-[4-[5-chloro-1-(4-fluorophenyl)-1H-indol-3-yl]piperidin-1-yl]ethyl]-2-imidazolidinone, reference compound]
IC50 (5-HT2 receptors): 0.39 nM

[2H]C1([2H])CNC(=O)N1CCN1CCC(c2cn(-c3ccc(F)cc3)c3ccc(Cl)cc23)CC1 [Compound 6, 1-[2-[4-[5-Chloro-1-(4-fluorophenyl)-1H-indol-3-yl]piperidin-1-yl]ethyl]-5,5-dideuteroimidazolidin-2-one]
IC50 (5-HT2 receptors): 0.98 nM
IC50 (dopamine D2 receptors): 7.6 nM

[2H]C1([2H])CN(CCN2CCC(c3cn(-c4ccc(F)cc4)c4ccc(Cl)cc34)CC2)C(=O)N1 [Compound 5, 1-[2-[4-[5-Chloro-1-(4-fluorophenyl)-1H-indol-3-yl]piperidin-1-yl]ethyl]-4,4-dideuteroimidazolidin-2-one]
IC50 (5-HT2 receptors): 0.69 nM
IC50 (dopamine D2 receptors): 5.9 nM

[2H]C1([2H])NC(=O)N(CCN2CCC(c3cn(-c4ccc(F)cc4)c4ccc(Cl)cc34)CC2)C1([2H])[2H] [Compound 4, 1-[2-[4-[5-Chloro-1-(4-fluorophenyl)-1H-indol-3-yl]piperidin-1-yl]ethyl]-4,4,5,5-tetradeuteroimidazolidin-2-one]
IC50 (5-HT2 receptors): 1.1 nM
IC50 (dopamine D2 receptors): 8.3 nM
